Legend:
[1] = target: ΔF508 CFTR (Homo sapiens (Human)) (UniProt P13569); test: CFTR co-IP, MudPIT MS; ΔF508
[2] = target: wild-type cystic fibrosis transmembrane conductance regulator (CFTR) (Homo sapiens (Human)) (UniProt P13569); test: CFTR co-IP, MudPIT MS; BHK wt, Calu-3, HT29, T84

Protein sequences, listed by entry. Tags and fused reporters are not part of them. Lines headed by an entry give the natural chain unless they say otherwise; changes in a name come on top.
UniProt P13569, whole entry: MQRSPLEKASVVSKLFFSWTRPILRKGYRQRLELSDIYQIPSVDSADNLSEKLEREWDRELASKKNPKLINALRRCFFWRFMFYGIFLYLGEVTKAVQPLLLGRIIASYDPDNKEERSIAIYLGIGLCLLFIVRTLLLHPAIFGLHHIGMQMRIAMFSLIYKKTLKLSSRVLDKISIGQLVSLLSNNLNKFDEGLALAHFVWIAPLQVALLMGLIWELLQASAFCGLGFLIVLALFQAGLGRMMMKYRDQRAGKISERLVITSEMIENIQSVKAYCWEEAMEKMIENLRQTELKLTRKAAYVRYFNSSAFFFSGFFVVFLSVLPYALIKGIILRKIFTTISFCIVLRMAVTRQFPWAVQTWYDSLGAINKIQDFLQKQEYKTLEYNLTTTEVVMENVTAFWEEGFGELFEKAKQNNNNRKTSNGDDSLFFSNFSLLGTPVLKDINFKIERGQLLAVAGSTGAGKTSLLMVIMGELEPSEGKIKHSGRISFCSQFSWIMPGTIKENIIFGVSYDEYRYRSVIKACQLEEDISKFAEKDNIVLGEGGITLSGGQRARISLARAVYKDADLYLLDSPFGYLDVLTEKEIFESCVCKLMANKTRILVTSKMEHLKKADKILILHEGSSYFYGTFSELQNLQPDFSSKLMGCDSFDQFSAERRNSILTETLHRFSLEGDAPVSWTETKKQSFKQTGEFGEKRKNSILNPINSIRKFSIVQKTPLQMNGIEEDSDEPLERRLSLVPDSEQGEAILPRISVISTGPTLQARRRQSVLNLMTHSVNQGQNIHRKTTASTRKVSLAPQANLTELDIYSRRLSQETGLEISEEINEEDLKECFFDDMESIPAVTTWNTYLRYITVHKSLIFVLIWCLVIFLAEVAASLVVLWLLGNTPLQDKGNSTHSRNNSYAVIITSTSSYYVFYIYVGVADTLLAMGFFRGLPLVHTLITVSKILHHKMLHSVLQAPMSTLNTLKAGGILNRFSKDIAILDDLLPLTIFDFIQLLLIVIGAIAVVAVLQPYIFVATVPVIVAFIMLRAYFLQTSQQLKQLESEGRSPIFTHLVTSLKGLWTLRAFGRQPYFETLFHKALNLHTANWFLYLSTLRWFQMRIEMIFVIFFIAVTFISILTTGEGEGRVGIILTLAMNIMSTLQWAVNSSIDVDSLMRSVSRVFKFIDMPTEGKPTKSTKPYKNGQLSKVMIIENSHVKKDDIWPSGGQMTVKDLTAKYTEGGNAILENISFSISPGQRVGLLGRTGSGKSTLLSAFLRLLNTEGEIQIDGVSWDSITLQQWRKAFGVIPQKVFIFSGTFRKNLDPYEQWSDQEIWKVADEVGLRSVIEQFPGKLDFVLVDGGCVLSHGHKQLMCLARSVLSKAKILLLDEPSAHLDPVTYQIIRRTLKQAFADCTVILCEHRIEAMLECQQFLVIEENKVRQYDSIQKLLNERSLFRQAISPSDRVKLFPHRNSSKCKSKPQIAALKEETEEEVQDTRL

Substance	% sequence coverage [1] [%]	total peptide spectra [1] [spectra]	unique peptide spectra [1] [spectra]	% sequence coverage [2] [%]	total peptide spectra [2] [spectra]	unique peptide spectra [2] [spectra]
ubiquitin C (from UniProt Q63429 1-76)	6	117	5	5	36	3
ubiquitin B (from UniProt P0CG49 1-76)	16	52	5	12	16	3
